# Antibody variant affinities, Ab-14 heavy chain, assay B

The measurements come from Li et al. 2023 (doi:10.1038/s41467-023-39022-2) through the FLAb antibody collection.

Target peptide (SARS-CoV-2 spike, HR2 region): PDVDLGDISGINAS

Parent scFv Ab-14: VH joined to VL by a 15-residue (Gly4Ser)3 linker. Changes lie in the heavy chain CDRs alone.
VH: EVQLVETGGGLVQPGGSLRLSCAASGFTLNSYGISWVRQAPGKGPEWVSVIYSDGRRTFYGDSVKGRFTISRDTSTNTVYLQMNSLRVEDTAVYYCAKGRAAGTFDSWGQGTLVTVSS
VL: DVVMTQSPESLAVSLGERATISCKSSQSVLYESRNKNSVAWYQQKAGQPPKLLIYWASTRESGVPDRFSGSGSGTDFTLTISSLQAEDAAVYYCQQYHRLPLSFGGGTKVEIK

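The parent was found by panning a naive human phage display library on the peptide. Designed CDR sequences, proposed from the first random library and measured here. Several design methods are mixed in this list. In AlphaSeq, yeast of one mating type display the scFv and yeast of the other type display the target. Mating (16 h, 30 °C) was followed by selection of diploids and sequencing of their barcodes. Read counts were normalised to the haploid input and turned into Kd by a linear fit to BCL2-family pairs of known affinity, for each replicate. Each pool was mated in six replicate cultures.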

The parent's heavy chain CDRs are GFTLNSYGIS, VIYSDGRRTFYGDSVK, GRAAGTFDS; each variant's own CDRs replace them letter for letter.
Variants here have more than six changes.
Kd is apparent (estimated from mating counts) and averaged on the log scale over replicates with a signal. Smaller is tighter.
"nd" marks a missing value. The strain was present, yet no cells mated with the target were sequenced in any replicate, which points to weak or no binding.
The parent sequence was in this pool as ten entries: three were never detected, three once, and four in most replicates, with averages from 2.2 nM to 240 nM.
Nonspecific signal, from three strains lacking the peptide, appeared in 1% of pairings of all heavy chain designs, centred on 120 nM (5% of these signals below 7.0 nM); values are not corrected for it. For each scFv, signals with the empty controls are counted beside the result.
Values of this round are not directly comparable with the first-round values of the same sequences.
The authors' rule: three or more of the six replicates give a measured affinity, fewer mean a poor binder.

With GFDLEEFGIS | VIYADGTRTMYLPTVK | GVNGGTFDM the result was 32 nM (2 of 6 replicates; controls 0 of 18). With GFDLDEYGIS | VIYADGMRTFYADSVK | GNIAGTFDL the result was 150 pM (6 of 6 replicates; controls 0 of 18). For GFDLNEYGIS | VIYADGKRTAYADSVK | GNQAGTFDI, the assay gave 5.6 nM (5 of 6 replicates; controls 0 of 18). Variant GFTLSEYGIS | VIYSDGRRVFYVQFVK | GRAEGTFLT showed nd (0 of 6 replicates; controls 0 of 18). For GFDLDEYGIS | VIYADGKRTFYADSVK | GTNAGTFDA, the assay gave 2.7 nM (6 of 6 replicates; controls 1 of 18).

For GFDLNEYGIS | VIYADGKRTFYADNVK | GEVAGTFIV, the assay gave nd (0 of 6 replicates; controls 0 of 18). Variant GFDLNEYGIS | VIYADGRRTFYLDSVK | GQLAGTFDT gave 390 pM (6 of 6 replicates; controls 0 of 18). Variant GFDLDEYGIS | VIYADGVRTAYADDVK | GNVAGTFDV showed 240 pM (6 of 6 replicates; controls 0 of 18). Variant GFDLNEYGIS | VIYADGVRTFYSDSVK | GNVGGTFDV gave 160 pM (6 of 6 replicates; controls 0 of 18). Variant GFDIQEYGIS | VIYADGHRTSYTNKVK | GGISMISST showed nd (0 of 6 replicates; controls 0 of 18).

With GFGLDEYGIS | VIYADGMRSNYANSVK | GHQAGVIVV the result was nd (0 of 6 replicates; controls 0 of 18). With GFDLEKYGIS | VIYADGRRSVYADDVK | GMLGATFGV the result was nd (0 of 6 replicates; controls 1 of 18). Variant GFDLDEYGIS | VIYADGMRTFYQDSVK | GNVAGTFDS gave 1.1 nM (6 of 6 replicates; controls 0 of 18). Variant GFDLNEYGIS | VIYADGRRTFYADSVK | GEAAGTFLL gave 1.6 nM (6 of 6 replicates; controls 0 of 18). Variant GFDLDEYGIS | VIYADGIRSVYHDSVK | GTGGGTIEA showed nd (0 of 6 replicates; controls 0 of 18).

For GFDLNEYGIS | VIYADGMRTSYADSVK | GTNAGTFDQ, the assay gave 13 nM (5 of 6 replicates; controls 0 of 18). Variant GFDLNEYGIS | VIYADGSRVEYENKFK | GDVAGTFDS gave 110 nM (5 of 6 replicates; controls 1 of 18). Variant GFDINEYGIS | VMYADGSRVAYRDDVK | GFWGGTFDM showed 480 pM (2 of 6 replicates; controls 0 of 18). For GFDLNEYGIS | VIYADGMRTAYADDVK | GANAGTFDI, the assay gave 460 pM (6 of 6 replicates; controls 0 of 18). Variant GFDLNEYGIS | VIYADGMRTYYADSVK | GSNAGTFDI showed 1.3 nM (6 of 6 replicates; controls 0 of 18).

Variant GFDVDEYGIS | VIYADGKRSMYADKVK | GVIADGMMV showed nd (0 of 6 replicates; controls 0 of 18). For GFNLDEYGIS | VIYADGHRTAYTNKVK | GGFSMISVT, the assay gave nd (0 of 6 replicates; controls 0 of 18). For GFDLNEYGIS | VIYADGRRTAYSDSVK | GEAAGTFDT, the assay gave 580 pM (6 of 6 replicates; controls 0 of 18). Variant GYDLQDYGIS | VIYADGVRVAYHQSVK | GQLAGIFLL showed nd (0 of 6 replicates; controls 0 of 18). Variant GFDLNEYGIS | VIYADGRRTFYVDSVK | GQIAGTFDQ showed 280 pM (6 of 6 replicates; controls 1 of 18).

With GFDLDEYGIS | VIYADGMRTAYADSVK | GQVAGTFDV the result was 150 pM (6 of 6 replicates; controls 0 of 18). For GFDLNEYGIS | VIYADGMRTAYVDSVK | GNVAGTFDM, the assay gave 1.5 nM (6 of 6 replicates; controls 0 of 18). Variant GFDLNEYGIS | VIYADGRRTFYTDSVK | GNVAGTFDV showed 520 pM (6 of 6 replicates; controls 1 of 18). With GFDLDEYGIS | VIYADGKRSAYADSVK | GNVAGTFDV the result was 330 pM (6 of 6 replicates; controls 0 of 18). With GFDLDEYGIS | VIYADGMRTAYTDSVK | GNEAGTFDV the result was 190 pM (6 of 6 replicates; controls 0 of 18).

With GFNLDEYGIS | VIYADGMRTVYAKNVK | GQNVGFTVF the result was nd (0 of 6 replicates; controls 0 of 18). With GWDLEHYGIS | VIYADGKRSGYSNAVK | GQQAGTFNT the result was 350 pM (5 of 6 replicates; controls 0 of 18). With GFDLNEYGIS | VIYADGVRTFYVDSVK | GETAGTFDA the result was 240 pM (6 of 6 replicates; controls 0 of 18). With GFNLDEYGIS | VIYADGRRTFYADSVK | GQVAGTFDF the result was 740 pM (6 of 6 replicates; controls 0 of 18). Variant GFNLNEYGIS | VIYADGRRTFYTDDVK | GEVAGTFDV showed 850 pM (6 of 6 replicates; controls 0 of 18).

Variant GFGLDEFGIS | VIYADGLRSSYADDVK | GEMTGGFVV showed nd (0 of 6 replicates; controls 0 of 18). For GQHLDEYGIS | VIYADGMRKYYADNVK | GKSVFSIII, the assay gave 1.3 nM (5 of 6 replicates; controls 0 of 18). Variant GDSLNEYGIS | VIYADGQRSYYANSVK | GEVDGLFSQ gave nd (0 of 6 replicates; controls 0 of 18). With GKDIDEYGIS | VIYADGRRTFVADSVK | GINSDFVLA the result was nd (0 of 6 replicates; controls 0 of 18).